Test results reported in patent publication US20160289650A1, “FLUORESCENT PROTEIN BIOSENSORS TO PROBE THE CONFORMATIONAL ACTIVATION OF CDK/CYCLIN KINASES” (CENTRE NATIONAL DE LA RECHERCHE SCIENTIFIQUE (CNRS), priority 2012, published 2016).

Target: Cyclin A (UniProt P20248)
Assay: steady-state fluorescence titration of the labelled CDK2 sensor with Cyclin A

Row | Kd [nM] | Maximum Fluorescence Enhancement [fold] | Substance
1 | 45 | 5 | C191 CDK2 (single-cysteine CDK2 mutant keeping Cys191), FITC-labelled (from UniProt P24941 1-298)
2 | – | 12 | CDKCONF labelled with FITC on C177 and C191 (from UniProt P24941 1-298)
3 | 50 | 7 | C177 CDK2 (single-cysteine CDK2 mutant keeping Cys177), FITC-labelled (from UniProt P24941 1-298)
